Test results from US7973066B2, “Pyrrolo[1,2-A]imidazoledione effective in the treatment of peripheral neurotoxicity induced by chemotherapeutic agents” (Neurotune AG, priority 2006, dated 2011).

Tested on: HT29 human colon carcinoma cell line
Assay: In vitro cytotoxicity and combination studies, ATPlite
Details: HT29 cells, 72 hours
Protocol: In order to verify if the use of NiK-13317 for the treatment of CIPN would not affect the efficacy of anticancer treatments, the effect of NiK-13317 on cytotoxicity of known anticancer drugs was examined in vitro using HT29 human colon carcinoma cell line.
After 72 hours, cells were lysed and cell metabolic activity was quantified with ATPlite kit (Perkin Elmer Life Science) following manufacturer's recommendations. The ATP present in all metabolically active cells catalyses a reaction of transformation of D-luciferin by Luciferase, producing a luminescent signal measured using VICTOR^3™ Multi Label Reader (Perkin Elmer). Results were expressed as percentage of luminescence produced (i.e. ATP produced) compared to the control. Complete concentration-response curves with anticancer drugs were constructed in order to identify the concentrations producing a submaximal and a maximal cytotoxic effect, to be utilized for combination experiments.

O=C1[O][Pt]2([NH][C@@H]3CCCC[C@H]3[NH]2)[O]C1=O [oxaliplatin]
concentration of maximal cytotoxic effect: 100 µM
